Data taken from ChEMBL document CHEMBL1268946, “Discovery of 2-substituted benzoxazole carboxamides as 5-HT3 receptor antagonists” (Bioorg Med Chem Lett, 2010).

Sequences of proteins named here, by UniProt entry; tags and fusion partners are left off. A change or cut given only in a name is not applied to a line headed by its entry.
UniProt Q12809: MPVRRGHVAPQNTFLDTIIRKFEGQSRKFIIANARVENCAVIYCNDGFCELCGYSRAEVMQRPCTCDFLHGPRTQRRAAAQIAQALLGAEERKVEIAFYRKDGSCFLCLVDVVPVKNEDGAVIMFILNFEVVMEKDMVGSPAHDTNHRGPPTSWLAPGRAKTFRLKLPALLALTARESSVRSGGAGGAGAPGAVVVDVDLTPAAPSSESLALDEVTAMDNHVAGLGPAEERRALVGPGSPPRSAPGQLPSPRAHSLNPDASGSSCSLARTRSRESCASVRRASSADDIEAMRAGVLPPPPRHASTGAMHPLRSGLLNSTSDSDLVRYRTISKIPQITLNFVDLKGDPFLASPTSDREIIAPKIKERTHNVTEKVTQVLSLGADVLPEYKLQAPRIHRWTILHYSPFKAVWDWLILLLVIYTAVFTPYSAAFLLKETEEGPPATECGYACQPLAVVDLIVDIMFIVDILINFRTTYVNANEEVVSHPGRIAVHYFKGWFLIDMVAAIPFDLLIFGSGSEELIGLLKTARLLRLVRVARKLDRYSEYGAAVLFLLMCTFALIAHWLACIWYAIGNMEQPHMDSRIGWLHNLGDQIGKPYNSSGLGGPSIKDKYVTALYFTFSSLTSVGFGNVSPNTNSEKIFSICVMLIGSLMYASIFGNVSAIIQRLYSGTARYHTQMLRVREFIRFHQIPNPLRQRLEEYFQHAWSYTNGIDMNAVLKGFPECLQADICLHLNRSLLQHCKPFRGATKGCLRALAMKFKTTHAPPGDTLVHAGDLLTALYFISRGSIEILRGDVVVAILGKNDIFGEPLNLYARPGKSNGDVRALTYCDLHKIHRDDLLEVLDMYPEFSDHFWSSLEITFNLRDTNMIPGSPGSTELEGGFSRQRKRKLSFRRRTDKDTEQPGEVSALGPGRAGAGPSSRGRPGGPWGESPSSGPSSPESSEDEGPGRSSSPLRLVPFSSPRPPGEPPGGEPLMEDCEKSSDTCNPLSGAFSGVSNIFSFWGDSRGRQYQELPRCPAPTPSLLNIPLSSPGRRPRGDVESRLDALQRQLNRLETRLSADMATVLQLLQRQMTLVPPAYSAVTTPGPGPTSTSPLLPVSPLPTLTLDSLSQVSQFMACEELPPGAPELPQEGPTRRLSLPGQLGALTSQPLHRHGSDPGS

Target: Voltage-gated inwardly rectifying potassium channel KCNH2 (Homo sapiens, UniProt Q12809)
Test: Inhibition of human ERG expressed in HEK cells by patch clamp technique

## Cc1nccn1CC1CCc2c(c3ccccc3n2C)C1=O (stereo unspecified) [ONDANSETRON]
  IC50: 0.4 µM
